Experimental findings from patent US20020019533A1, “PIPERIDINE DERIVATIVES AND ANTI-PLATELET AGENTS CONTAINING THE SAME” (priority 1994, published 2002) are described below.

Protein sequences, listed by entry. Tags and fused reporters are not part of them.
UniProt Q75Z89, whole entry: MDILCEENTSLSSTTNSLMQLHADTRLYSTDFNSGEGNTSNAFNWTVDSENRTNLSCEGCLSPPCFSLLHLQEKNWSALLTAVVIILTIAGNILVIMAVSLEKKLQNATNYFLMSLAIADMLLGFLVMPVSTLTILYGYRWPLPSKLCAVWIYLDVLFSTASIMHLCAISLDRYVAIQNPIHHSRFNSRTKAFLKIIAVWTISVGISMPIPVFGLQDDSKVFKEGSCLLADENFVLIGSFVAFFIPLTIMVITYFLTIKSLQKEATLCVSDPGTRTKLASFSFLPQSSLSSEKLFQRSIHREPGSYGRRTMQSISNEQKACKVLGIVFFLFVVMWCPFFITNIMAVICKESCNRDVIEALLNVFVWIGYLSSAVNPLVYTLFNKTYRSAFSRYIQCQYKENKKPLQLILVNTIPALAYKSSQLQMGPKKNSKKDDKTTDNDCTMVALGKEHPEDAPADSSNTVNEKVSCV

For orientation: pIC50 means the IC50 on a negative log10 scale, so that one unit is a factor of ten. In general, pKi refers to −log10 of the Ki, conventionally taken in molar units. Higher therefore signals a small Ki.

Assay [1] deals with platelet of SD rats. The assay can be described thus: In vitro anti-platelet effect: platelet aggregation induced by ADP + serotonin in rat platelet rich plasma. Conditions: rat PRP, 0.5 μM or 0.8 μM ADP + serotonin, 50% inhibition of the serotonin-caused increase in aggregation. The assay is classed as cell-based. As for the experimental part: The anti-platelet effect due to the serotonin antagonistic activity was measured in vitro using the platelet of SD rats (body weight: about 300 to 400 g, male). Platelet rich plasma (PRP) and platelet poor plasma (PPP) were prepared from blood with 0.38% sodium citrate which was obtained from aorta abdominalis of a rat under diethyl ether anesthesia. The platelet concentration of PRP was adjusted to 5×10^8 platelets/ml by adding PPP. Then, the test compound dissolved in 0.4% aqueous ethanol was added, and the mixture was incubated at 37° C. for 3 minutes. The platelet aggregation induced by addition of 0.5 μM or 0.8 μM adenosine diphosphate (ADP)+ serotonin was measured as an increase in optical transmittance of PRP. The concentration of the test compound which inhibits 50% of the increase in platelet aggregation which is obtained with serotonin without a test compound was measured, and its negative logarithm (pIC50) was calculated.

Assay [2] deals with serotonin 2 receptor (Bos taurus, UniProt Q75Z89). The assay can be described thus: Binding affinity to the serotonin 2 receptor, [3H]-ketanserin, bovine cerebral cortex membrane. The settings on record: negative logarithm of Ki, 3 nM [3H]-ketanserin, 25° C., 30 minutes. As for the experimental part: The binding affinity to the serotonin 2 receptor was evaluated using a bovine cerebral cortex membrane sample. To 200 μl of a bovine membrane sample adjusted to 50 mg (wet weight) membrane/ml were added 200 μl of 3 nM [^3H]-ketanserin and 200 μl of a test compound solution prepared by dissolving a test compound in 1.7% ethanol, followed by mixing. The mixture was incubated at 25° C. for 30 minutes and filtered with a glass filter. The radioactivity trapped on the filter was measured with a liquid scintillation counter. The non-specific binding was defined by 10^−6 M LY53857. The concentration of the test compound which inhibits 50% of the specific binding of [^3H]-ketanserin (i.e., IC50 value) was obtained, and the Ki value was calculated in accordance with the following equation. The results are shown as the negative logarithm of the Ki value (i.e., pKi value). [formula]
In the equation, Ki indicates the dissociation constant and [L] indicates the concentration of [^3H]-ketanserin.

Assay [3] relates to platelet aggregation by serotonin. The assay can be described thus: In vivo anti-platelet effect after oral administration: ADP + serotonin induced aggregation of PRP taken 2 hours after dosing. Conditions: 0.3 mg/kg oral, 2 hours after administration, arabic gum group = 100%, n=3. Here is the method: The anti-platelet effect due to the serotonin antagonistic activity was measured in vivo using SD rats (body weight: about 210 to 330 g, male). Two hours after the administration of the test compound, the rat was anesthetized with diethyl ether and platelet rich plasma (PRP) and platelet poor plasma (PPP) were prepared from blood with 0.38% sodium citrate which was obtained from aorta abdominalis of the rat. The platelet concentration of PRP was adjusted to 5×10^8 platelets/ml by adding PPP. Then, the PRP was incubated at 37° C. for 3 minutes, and platelet aggregation induced by addition of 0.7 μM adenosine diphosphate (ADP)+ serotonin was measured as an increase in optical transmittance of PRP. The aggregation occurred by addition of ADP alone and the maximum aggregation ratio by the simultaneous addition of ADP and serotonin were measured with respect to each group, and increase in aggregation caused by serotonin was calculated. The increase in aggregation caused by serotonin in the arabic gum administered group was taken as 100%, and the effect of the test compound was judged using as an index the increase in aggregation caused by the serotonin in the test compound-administered group (n=3).

As for `COC(=O)N1CCC(C(=O)NCCN2CCC(=C3c4ccccc4C=Cc4ccccc43)CC2)CC1`, the negative-log IC50 (pIC50) in assay [1] (tested form: hydrochloride) was determined as 7.5. The same compound gave a pKi in assay [2] (tested form: hydrochloride) of 8.2.
`CC(=O)N1CCC(C(=O)NCCN2CCC(=C3c4ccccc4C=Cc4ccccc43)CC2)CC1`: in assay [1], the pIC50 turned out to be 7.2. The pKi in assay [2] is on record as 8.5.
In the case of `c1ccc2c(c1)CCc1ccccc1C2=C1CCN(CCCCN2CCCCC2)CC1`, the pKi in assay [2] is listed as 7.9.
Take `CC(=O)N1CCCCC1C(=O)NCCN1CCC(=C2c3ccccc3C=Cc3ccccc32)CC1` (centres unmarked): the pKi in assay [2] is given as 8.8.
`NCCN1CCC(=C2c3ccccc3Sc3ccccc32)CC1`: the pIC50 in assay [1] is listed as 5.0. Besides, the pKi in assay [2] is 8.4.
For the compound `CC(C)(C)OC(=O)NCCN1CCC(=C2c3ccccc3CCc3ccccc32)CC1`, the pKi in assay [2] stood at 8.3.
`O=CN1CCC(C(=O)OCCN2CCC(=C3c4ccccc4C=Cc4ccccc43)CC2)CC1`: the pIC50 in assay [1] was found to be 7.4. In assay [2], this compound displayed a pKi of 8.3.
`O=CN1CCC(C(=O)NCCN2CCC(=C3c4ccccc4Sc4ccccc43)CC2)CC1`: the negative logarithm of the IC50 (pIC50) in assay [1] was 7.1. In assay [2], the pKi amounted to 9.2. For the same compound, in assay [3], the “Increase in aggregation by serotonin” value is listed as 54.5%.
Consider `O=CN1CCC(C(=O)NCCN2CCC(=C3c4ccccc4CCc4ccccc43)CC2)CC1`, for which the pIC50 in assay [1] stood at 5.8. In assay [2], this compound came in with a pKi of 8.9.
With `O=CN1CCC(C(=O)NCCN2CCC(=C3c4ccccc4CSc4ccc(F)cc43)CC2)CC1`, in assay [1], the pIC50 is 5.6. This compound had a pKi in assay [2] of 7.1.
The corresponding values for `CN(C)C(=O)N1CCC(C(=O)NCCN2CCC(=C3c4ccccc4C=Cc4ccccc43)CC2)CC1` are 6.7 and 8.5.
The corresponding values for `O=CN1CCC(C(=O)NCCCN2CCC(=C3c4ccccc4C=Cc4ccccc43)CC2)CC1` are 6.4 and 8.3.
Consider `CC(=O)NC1CCC(C(=O)NCCN2CCC(=C3c4ccccc4C=Cc4ccccc43)CC2)CC1` (centres unmarked), for which the pKi in assay [2] is recorded as 9.3.
